The text below walks through data of patent US10562848B2, “Inhibitors of TNF superfamily costimulatory interactions and methods for uses of the same” (UNIVERSITY OF MIAMI, priority 2015, dated 2020).

In the experiment the test system is Balb/c skin grafts in C57BL/6 mice. The experiment can be described thus: Skin allograft survival model. Format: in vivo, mouse. As to conditions: CTLA4-Ig alone, 250 μg days 0, 2, 4, 6. An excerpt:
As a first in vivo test of the immunomodulating ability of the present compounds, the ability of compound 21045 to cause prolongation of skin allograft survival was examined. Full-thickness ear skins from donor mice (Balb/c, Jackson Laboratory; Bar Harbor, Me.) were transplanted onto the dorsal thorax of recipient mice (C57BL/6, Jackson Laboratory) by placing them on ˜1 cm diameter graft beds and securing with bandages. Following a protocol from Pinelli, D. F. et al. Am. J. Transplant. […] Mice treated with CTLA4-Ig alone rejected skin grafts with a mean survival time (MST) of 12.0 days. Addition of 21045 prolonged survival in a statistically significant manner (MST of 15 days), but less than the positive control MR-1 (MST of 19 days) (FIG. 7). Data are with a total of 5-8 mice per group. *p<0.05, ***p<0.001 compared to CTLA4-Ig alone. Skin transplants are among the most stringent transplants as they are known to generate higher immune response than, liver, heart, or kidney transplants; therefore, even small prolongations are indicative of immunomodulatory potential.

On to “CTLA4-Ig: CTLA4-Ig (Orencia; Bristol-Myers Squibb) [reference compound]”, for which the “mean survival time (MST) of skin grafts” value is given as 12.0 days.
